Measurements as given in patent US8329950B2, “Process for preparation of trans 4-(3,4-Dichlorophenyl)-1,2,3,4-tetrahydro-1Napthalenamine” (Sunovion Pharmaceuticals Inc., priority 2005, dated 2012).

The chains behind the UniProt entries cited, without tags or fusion partners.
UniProt P31652, whole entry: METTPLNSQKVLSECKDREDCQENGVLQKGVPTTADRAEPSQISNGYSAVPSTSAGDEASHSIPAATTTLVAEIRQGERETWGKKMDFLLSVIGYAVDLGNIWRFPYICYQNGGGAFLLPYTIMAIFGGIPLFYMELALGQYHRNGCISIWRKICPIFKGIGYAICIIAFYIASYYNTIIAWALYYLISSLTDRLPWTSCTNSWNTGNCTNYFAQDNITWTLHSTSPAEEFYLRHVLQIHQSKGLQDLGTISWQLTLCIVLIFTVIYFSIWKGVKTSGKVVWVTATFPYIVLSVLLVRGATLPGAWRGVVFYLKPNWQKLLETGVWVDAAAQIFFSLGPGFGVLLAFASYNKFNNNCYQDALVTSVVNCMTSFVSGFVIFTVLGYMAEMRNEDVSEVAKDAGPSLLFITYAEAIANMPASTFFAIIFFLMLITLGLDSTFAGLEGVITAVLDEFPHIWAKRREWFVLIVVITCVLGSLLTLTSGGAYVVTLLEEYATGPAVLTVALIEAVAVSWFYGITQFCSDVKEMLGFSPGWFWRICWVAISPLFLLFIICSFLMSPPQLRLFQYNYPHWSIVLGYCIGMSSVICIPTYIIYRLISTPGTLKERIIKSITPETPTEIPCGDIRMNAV

Target: T1, functional uptake of serotonin (5-HT) (Rattus norvegicus, UniProt P31652)
T1 construct: synaptosomes isolated in a 0.32 M sucrose buffer from a male Wistar rat cortex; from tissue; host or cells: male Wistar rat cortex (whole brain) synaptosomes
Test: Serotonin functional uptake assay in rat synaptosomes
Assay type: biochemical

| SMILES | IC50 (Table 6, rat synaptosomes) [nM] | inhibition at 10 µM (read-out: inhibition of 5-HT uptake, Table 5, tested initially at 10 μM) [%] |
| --- | --- | --- |
| N[C@@H]1CC[C@@H](c2ccc(Cl)c(Cl)c2)c2ccccc21 (relative stereo) [P + Q, trans 4-(3,4-dichlorophenyl)-1,2,3,4-tetrahydro-1-napthalenamine] | 41 | – |
| CNCCCC1c2ccccc2C=Cc2ccccc21 [protriptyline] | – | < 50 |
